Reference: ChEMBL document CHEMBL5212743, “Selectivity Literature for EUbOPEN Chemogenomics Library wave 3” (2023)

Protein sequences, listed by entry. Tags and fused reporters are not part of them. Residues count along the entry.
UniProt P00742, 41-179 limits assumed: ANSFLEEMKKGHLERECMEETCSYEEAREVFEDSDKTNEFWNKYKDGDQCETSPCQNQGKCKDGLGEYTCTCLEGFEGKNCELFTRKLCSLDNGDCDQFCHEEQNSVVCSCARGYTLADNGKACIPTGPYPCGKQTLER
UniProt P00742, 235-488 limits assumed: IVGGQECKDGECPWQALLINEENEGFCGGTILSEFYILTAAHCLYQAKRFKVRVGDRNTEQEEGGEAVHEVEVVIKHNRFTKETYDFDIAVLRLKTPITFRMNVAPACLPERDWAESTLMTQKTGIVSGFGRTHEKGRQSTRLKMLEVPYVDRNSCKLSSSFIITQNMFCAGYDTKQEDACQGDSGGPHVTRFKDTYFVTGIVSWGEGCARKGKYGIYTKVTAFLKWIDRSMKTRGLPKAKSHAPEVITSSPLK

How the values were obtained:
Coagulation factor X = Coagulation factor X (Homo sapiens, UniProt P00742); test: Selectivity interaction (Serine protease panel) EUB0000735a F10
[1] = molecular target: Urokinase-type plasminogen activator (Homo sapiens, UniProt P00749); test: Selectivity interaction (Serine protease panel) EUB0000735a PLAU
Prothrombin = Prothrombin (Homo sapiens, UniProt P00734); test: Selectivity interaction (Serine protease panel) EUB0000735a F2

IC50 (Coagulation factor X): > 30 µM
IC50 [1]: > 30 µM
IC50 (Prothrombin): > 30 µM
Compound: CC(=O)C1=C(C)N(c2cccc(C(F)(F)F)c2)C(=O)N[C@@H]1c1ccc(C#N)nc1 [BAY-678]
